Measured values published in patent US12365658B2, “Benzothia(di)azepine compounds and their use as bile acid modulators” (Albireo AB, priority 2021, dated 2025).

By UniProt entry, the sequences of proteins in these tests, tags left out.
UniProt Q14973, whole entry: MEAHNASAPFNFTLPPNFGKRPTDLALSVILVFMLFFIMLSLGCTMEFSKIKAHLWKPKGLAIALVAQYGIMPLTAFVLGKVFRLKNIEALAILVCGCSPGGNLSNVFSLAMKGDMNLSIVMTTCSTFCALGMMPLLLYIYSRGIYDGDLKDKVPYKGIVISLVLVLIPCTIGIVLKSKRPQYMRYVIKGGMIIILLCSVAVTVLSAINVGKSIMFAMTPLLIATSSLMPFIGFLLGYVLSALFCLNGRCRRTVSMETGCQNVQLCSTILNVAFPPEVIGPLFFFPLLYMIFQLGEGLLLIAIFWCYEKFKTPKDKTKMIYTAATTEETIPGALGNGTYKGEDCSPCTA
UniProt Q12908, whole entry: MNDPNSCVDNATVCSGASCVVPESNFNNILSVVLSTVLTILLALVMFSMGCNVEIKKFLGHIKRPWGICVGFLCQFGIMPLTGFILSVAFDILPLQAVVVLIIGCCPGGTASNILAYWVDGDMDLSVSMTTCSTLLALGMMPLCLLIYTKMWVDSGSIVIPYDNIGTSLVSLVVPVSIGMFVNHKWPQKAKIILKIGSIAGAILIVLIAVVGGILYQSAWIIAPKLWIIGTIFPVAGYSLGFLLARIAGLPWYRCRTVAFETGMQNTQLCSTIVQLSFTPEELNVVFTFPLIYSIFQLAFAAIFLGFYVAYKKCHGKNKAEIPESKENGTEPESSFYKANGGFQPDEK

What was measured:
Human LBAT = Human LBAT (Homo sapiens, UniProt Q14973); assay: LBAT (h/m) assay, human LBAT-overexpressing cells, 3H-taurocholic acid uptake; details: read-out: hLBAT IC50, 0.3 μM 3H-taurocholic acid and 7.5 μM cold taurocholic acid, 20 minutes
Human IBAT = Human IBAT (Homo sapiens, UniProt Q12908); assay: IBAT (h/m) assay, human IBAT-overexpressing cells, 3H-taurocholic acid uptake; details: read-out: hIBAT IC50, 0.25 μM 3H-taurocholic acid and 5 μM cold taurocholic acid, 20 minutes, highest test concentration 10 μM
Bioavailability studies = details: single intravenous dose 1 mg/kg and single oral dose 10 mg/kg; species per compound not given
Caco-2 cells = assay: Bidirectional permeability assay (Caco-2 cells); details: 10 μM in FaSSIF buffer, 120 minutes; for Permeability (Caco-2) Papp A2B: absorptive direction (A2B); for Permeability (Caco-2) Papp B2A: secretory direction (B2A)

IC50 (Human LBAT) [nM]	IC50 (Human IBAT) [nM]	Bioavailability (Bioavailability studies) [%]	Permeability (Caco-2) Papp A2B (Caco-2 cells) [×10⁻⁶ cm/s]	Permeability (Caco-2) Papp B2A (Caco-2 cells) [×10⁻⁶ cm/s]	Compound
2.8	234	11	7.7	10.6	CCCCC1CN(c2ccc(F)cc2)c2cc(SC)c(OCC3(C(=O)O)CC3)cc2S(=O)(=O)N1 (single isomer, unassigned) [17, enantiomer 1]
9.4	3010	–	–	–	CCCCC1CN(c2ccc(F)cc2)c2cc(SC)c(OCC3(C(=O)O)CC3)cc2S(=O)(=O)N1C (single isomer, unassigned) [12, enantiomer 1]
131	1250	–	–	–	CCCCC1CN(c2ccc(F)cc2)c2cc(SC)c(OCC3(C(=O)O)CC3)cc2S(=O)(=O)N1 (single isomer, unassigned) [17, enantiomer 2]
1.3	274	–	7.2	7	CCCCC1CN(c2ccc(F)cc2)c2cc(SCC)c(OCC3(C(=O)O)CC3)cc2S(=O)(=O)N1 (single isomer, unassigned)
8.5	96	33	12.9	9.1	CCCCC1CN(c2ccc(F)cc2)c2cc(SC)c(OCC3(C(=O)O)CC3)cc2S(=O)(=O)N1C (single isomer, unassigned) [12, enantiomer 2]
918	1950	–	–	–	CCCCC1CN(c2ccc(F)cc2)c2cc(SC)c(OCC(C)(C)C(=O)O)cc2S(=O)(=O)N1C (single isomer, unassigned) [14, enantiomer 2]

Compound	IC50 (Human LBAT) [nM]	IC50 (Human IBAT) [nM]	Bioavailability (Bioavailability studies) [%]	Permeability (Caco-2) Papp A2B (Caco-2 cells) [×10⁻⁶ cm/s]	Permeability (Caco-2) Papp B2A (Caco-2 cells) [×10⁻⁶ cm/s]
CCCCC1CN(c2ccccc2)c2cc(SC)c(OCC(F)(F)C(=O)O)cc2S(=O)(=O)N1C (single isomer, unassigned)	0.6	203	–	–	–
